Reference: patent US9706755B2, “Controlled odor mimic permeation system” (dated 2017)

Experiments:
[1] = Vapour pressure of organic explosives at 25° C.; conditions: for Vapour Pressure at 25° C.: extrapolated values (*)
dogs in training = assay: Initial imprinting of dogs in training on silica TNT mimic aid, cross-over to real TNT (Table 92); conditions: 28 g explosive in Scratch Box; dogs A, B, C imprinted on COMPS TNT aid, plus FIU dog
[2] = test system: explosives detection canines; assay: Overall / individual canine performance (alerts plus interests over all hides; real explosives, odor chemicals, NESTT silica and petrolatum aids; Tables 69-72); conditions: for total number of alerts or interest / total number of hides: interest reported as alert; for overall canine population response to odor chemical (alert/interest): Table 70, all field tests pooled, canines 120, 140, 141 discounted; for Total, alerts or interest / hides / Total, alerts or interest as percent of hides: all canines 101-144; for Adjusted Total, alerts or interest / hides / Adjusted Total, alerts or interest as percent of hides: removing canines 120, 140 & 141
[3] = Dog Number 120 (20/28 false alerts, discounted from adjusted totals)
[4] = Table 69, alerts or interests over total hides
[5] = listed as 2,4,6-Trinitrotoluene

Cc1c([N+](=O)[O-])cc([N+](=O)[O-])cc1[N+](=O)[O-]
vapour pressure relative to RDX [1]: three orders of magnitude greater
% Alert (dogs in training): 25.0%
Alert (dogs) (dogs in training): FIU
No Alert (dogs) (dogs in training): B, C
total number of alerts or interest / total number of hides ([2]; Dog Number 101): 2/2
total number of alerts or interest / total number of hides ([2]; Dog Number 101, listed as 2,4,6-Trinitrotoluene): 0/2
total number of alerts or interest / total number of hides ([2]; Dog Number 102): 1/1
total number of alerts or interest / total number of hides ([2]; Dog Number 103): 1/1
total number of alerts or interest / total number of hides ([2]; Dog Number 104): 1/1
total number of alerts or interest / total number of hides ([2]; Dog Number 105): 1/1
total number of alerts or interest / total number of hides ([2]; Dog Number 106): 1/1
total number of alerts or interest / total number of hides ([2]; Dog Number 106, listed as 2,4,6-Trinitrotoluene): 2/2
total number of alerts or interest / total number of hides ([2]; Dog Number 107): 0/1
total number of alerts or interest / total number of hides ([2]; Dog Number 108): 1/2
total number of alerts or interest / total number of hides ([2]; Dog Number 109): 1/2
total number of alerts or interest / total number of hides ([2]; Dog Number 110): 1/1
total number of alerts or interest / total number of hides ([2]; Dog Number 110, listed as 2,4,6-Trinitrotoluene): 1/2
total number of alerts or interest / total number of hides ([2]; Dog Number 111): 1/1
total number of alerts or interest / total number of hides ([2]; Dog Number 112): 1/1
total number of alerts or interest / total number of hides ([2]; Dog Number 113): 1/1
total number of alerts or interest / total number of hides ([2]; Dog Number 113, listed as 2,4,6-Trinitrotoluene): 0/2
total number of alerts or interest / total number of hides ([2]; Dog Number 114): 0/1
total number of alerts or interest / total number of hides ([2]; Dog Number 115): 1/1
total number of alerts or interest / total number of hides ([2]; Dog Number 116): 1/1
total number of alerts or interest / total number of hides ([2]; Dog Number 117): 1/1
total number of alerts or interest / total number of hides ([2]; Dog Number 117, listed as 2,4,6-Trinitrotoluene): 0/1
total number of alerts or interest / total number of hides ([2]; Dog Number 118): 1/1
total number of alerts or interest / total number of hides ([2]; Dog Number 118, listed as 2,4,6-Trinitrotoluene): 0/1
total number of alerts or interest / total number of hides ([2]; Dog Number 119): 1/1
total number of alerts or interest / total number of hides ([2]; Dog Number 119, listed as 2,4,6-Trinitrotoluene): 0/1
total number of alerts or interest / total number of hides [2, 3]: 2/2
total number of alerts or interest / total number of hides ([2]; Dog Number 121): 0/1
overall canine population performance on real explosives (location of the training aid) [2, 4]: 100%
overall canine population performance on real explosives (responses / hides) [2, 4]: 10/10
overall canine population response to odor chemical (alert/interest) [2]: 50.0%
Total, alerts or interest / hides [2]: 12/12
Total, alerts or interest as percent of hides [2]: 100%
Total, alerts or interest / hides [2, 5]: 13/26
Total, alerts or interest as percent of hides [2, 5]: 50.0%
Adjusted Total, alerts or interest / hides [2]: 10/10
Adjusted Total, alerts or interest as percent of hides [2]: 100%
Adjusted Total, alerts or interest / hides [2, 5]: 13/26
Adjusted Total, alerts or interest as percent of hides [2, 5]: 50.0%

O=[N+]([O-])c1cccc([N+](=O)[O-])c1
total number of alerts or interest / total number of hides ([2]; Dog Number 101): 0/2
total number of alerts or interest / total number of hides ([2]; Dog Number 102): 0/1
total number of alerts or interest / total number of hides ([2]; Dog Number 103): 0/1
total number of alerts or interest / total number of hides ([2]; Dog Number 104): 0/1
total number of alerts or interest / total number of hides ([2]; Dog Number 105): 0/1
total number of alerts or interest / total number of hides ([2]; Dog Number 106): 2/2
total number of alerts or interest / total number of hides ([2]; Dog Number 107): 0/1
total number of alerts or interest / total number of hides ([2]; Dog Number 108): 1/2
total number of alerts or interest / total number of hides ([2]; Dog Number 109): 1/2
total number of alerts or interest / total number of hides ([2]; Dog Number 110): 0/2
total number of alerts or interest / total number of hides ([2]; Dog Number 111): 1/1
total number of alerts or interest / total number of hides ([2]; Dog Number 112): 1/1
total number of alerts or interest / total number of hides ([2]; Dog Number 113): 1/2
total number of alerts or interest / total number of hides ([2]; Dog Number 114): 1/1
total number of alerts or interest / total number of hides ([2]; Dog Number 115): 1/1
total number of alerts or interest / total number of hides ([2]; Dog Number 116): 1/1
total number of alerts or interest / total number of hides ([2]; Dog Number 117): 0/1
total number of alerts or interest / total number of hides ([2]; Dog Number 118): 0/1
total number of alerts or interest / total number of hides ([2]; Dog Number 119): 0/1
total number of alerts or interest / total number of hides ([2]; Dog Number 121): 0/1
overall canine population response to odor chemical (alert/interest) [2]: 38.5%
Total, alerts or interest / hides [2]: 10/26
Total, alerts or interest as percent of hides [2]: 38.5%
Adjusted Total, alerts or interest / hides [2]: 10/26
Adjusted Total, alerts or interest as percent of hides [2]: 38.5%

CC1(C)OOC(C)(C)OOC(C)(C)OO1
Vapour Pressure at 25° C. [1]: 3.7 × 10^−1* torr

Cc1ccc([N+](=O)[O-])cc1[N+](=O)[O-]
vapour pressure relative to 2,4,6-trinitrotoluene [1]: over 35 ×
Vapour Pressure at 25° C. [1]: 2.1 × 10^−4* torr
total number of alerts or interest / total number of hides ([2]; Dog Number 101): 1/2
total number of alerts or interest / total number of hides ([2]; Dog Number 102): 1/1
total number of alerts or interest / total number of hides ([2]; Dog Number 103): 1/1
total number of alerts or interest / total number of hides ([2]; Dog Number 104): 1/1
total number of alerts or interest / total number of hides ([2]; Dog Number 105): 1/1
total number of alerts or interest / total number of hides ([2]; Dog Number 106): 2/2
total number of alerts or interest / total number of hides ([2]; Dog Number 107): 1/2
total number of alerts or interest / total number of hides ([2]; Dog Number 108): 0/3
total number of alerts or interest / total number of hides ([2]; Dog Number 109): 2/5
total number of alerts or interest / total number of hides ([2]; Dog Number 110): 3/5
total number of alerts or interest / total number of hides ([2]; Dog Number 111): 0/1
total number of alerts or interest / total number of hides ([2]; Dog Number 112): 3/3
total number of alerts or interest / total number of hides ([2]; Dog Number 113): 1/3
total number of alerts or interest / total number of hides ([2]; Dog Number 114): 1/1
total number of alerts or interest / total number of hides ([2]; Dog Number 115): 1/1
total number of alerts or interest / total number of hides ([2]; Dog Number 116): 1/1
total number of alerts or interest / total number of hides ([2]; Dog Number 117): 1/3
total number of alerts or interest / total number of hides ([2]; Dog Number 118): 0/4
total number of alerts or interest / total number of hides ([2]; Dog Number 119): 0/1
total number of alerts or interest / total number of hides [2, 3]: 3/4
total number of alerts or interest / total number of hides ([2]; Dog Number 121): 0/1
total number of alerts or interest / total number of hides ([2]; Dog Number 126): 1/2
total number of alerts or interest / total number of hides ([2]; Dog Number 127): 0/2
total number of alerts or interest / total number of hides ([2]; Dog Number 129): 1/2
total number of alerts or interest / total number of hides ([2]; Dog Number 133): 0/2
total number of alerts or interest / total number of hides ([2]; Dog Number 140 (4/6 false alerts, discounted from adjusted totals)): 1/1
total number of alerts or interest / total number of hides ([2]; Dog Number 141 (4/6 false alerts, discounted from adjusted totals)): 1/1
total number of alerts or interest / total number of hides ([2]; Dog Number 142): 1/1
total number of alerts or interest / total number of hides ([2]; Dog Number 144): 0/1
overall canine population response to odor chemical (alert/interest) [2]: 46.2%
Total, alerts or interest / hides [2]: 29/58
Total, alerts or interest as percent of hides [2]: 50.0%
Adjusted Total, alerts or interest / hides [2]: 24/52
Adjusted Total, alerts or interest as percent of hides [2]: 46.2%

Some compounds may have been tested in ways that are not shown here. Marks after values point to notes of the source that are not given here.
